Experimental data taken from PubChem BioAssay AID463116 (University of Pittsburgh Molecular Library Screening Center, 2010).
Only a part is listed here, and it is no random draw. Records with an inconclusive call do not appear. The source made the active and inactive calls.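 How the source made its calls: active means inhibition of receptor movement into the nucleus at or above a set limit in both runs, with normal cell brightness and cell count; inconclusive means limit reached in only one run, brightness and count normal; inactive means the rest.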

Test: dynein cargo transport inhibitors, GR-EGFP translocation, confirmation, imaging, high-content imaging, GR-EGFP cells (AID 463116);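 further: dexamethasone at 1 µM final in well for 30 min; nuclear minus cytoplasmic GR-EGFP mean intensity difference in channel 2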
Details: 3617.4 GR-EGFP nuclear translocation imaging, dexamethasone-induced; at 20 µM; stronger effect = higher value

Row | Structure (SMILES) | inhibition
1 | Cc1c2non([O-])c-2c(C)[n+](=O)[n+]1[O-] | active: 60.5%
2 | O=c1c2cc([N+](=O)[O-])ccc2[nH]c2c([N+](=O)[O-])cc([N+](=O)[O-])cc12 | inactive: 20.2%
